# Tested on: picrotoxin binding site on GABAA receptors
# Experiment: [35S]-TBPS displacement
structure (smiles),measurement,setting,value
"C[C@]12CC[C@@H](O)C[C@@H]1CC[C@@H]1[C@@H]2C(=O)C[C@]2(C)/C(=C\C#N)CC[C@@H]12 [Compound 6a, [3α,5α,17(20)Z]-3-Hydroxy-11-oxopregn-17(20)-ene-21-nitrile]",[35S]-TBPS displacement potency relative to steroid 2,more potent than steroid 2 (ratio of IC50 values),~ 17 fold
same,[35S]-TBPS displacement potency relative to steroid 6b,more potent than steroid 6b (ratio of IC50 values),~ 16 fold

# Reference: article PMC3794474 (Journal of medicinal chemistry, 2011)
